Laboratory results as given in PubChem BioAssay AID1466 (National Center for Advancing Translational Sciences (NCATS), 2008).
Some of the results follow. Results filed as inconclusive are left out. Activity calls are given as the source filed them. Calls come from the whole dose curve; as a rule, active = well fitted inhibition curve with a large enough effect; inconclusive = small, poorly fitted or top-dose-only effect, or effect the other way, or another doubt; inactive = no such curve, though single readings can be large or run the other way.

target: Lysosomal alpha-glucosidase (Homo sapiens) (UniProt P10253); experiment: qHTS Assay for Inhibitors of Human alpha-Glucosidase as a Potential Chaperone Treatment of Pompe Disease; conditions: purified human GAA, 4-MU-alpha-glucoside fluorescence; at 76.9 µM (top of the series);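 note: plate controls were uninhibited enzyme wells for no effect and no-enzyme background for full effect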

Row | SMILES | activity change, negative = inhibition
1 | Cc1nc2ccc3ccccc3c2s1.O=[N+]([O-])c1cc([N+](=O)[O-])c(O)c([N+](=O)[O-])c1 | inactive: -12.5%
2 | O=[N+]([O-])c1cc([N+](=O)[O-])c(-n2nnc3ccccc32)c([N+](=O)[O-])c1 | inactive: 0.583%
3 | CP(=O)(Nc1ccc(SC(F)(F)F)cc1)Oc1ccccc1 (centres undefined) | inactive: -3.85%
4 | CCCOc1ccc(NP(C)(=O)Oc2ccc(Cl)cc2)cc1 (centres undefined) | inactive: -0.828%
5 | COc1ccccc1OP(C)(=O)Nc1c(C)cccc1C (centres undefined) | inactive: 1.65%
6 | CN1CCCCC1COC(=O)C1(O)c2ccccc2CCc2ccccc21 (centres undefined) | inactive: -1.84%
7 | CC1=NCCc2c1[nH]c1ccccc21.O=[N+]([O-])c1cc([N+](=O)[O-])c(O)c([N+](=O)[O-])c1 | inactive: -0.819%
8 | CP(=O)(Nc1cccc(Br)c1)Oc1ccccc1 (centres undefined) | inactive: 2.55%
9 | Cc1cc(C)cc(OP(C)(=O)Nc2ccccn2)c1 (centres undefined) | inactive: 1.1%
10 | Cc1ccc(C)c(NP(C)(=O)Oc2ccccc2)c1 (centres undefined) | inactive: -5.91%
11 | Cc1cc(C)cc(OP(C)(=O)Nc2ccc(C)cc2C)c1 (centres undefined) | inactive: -3.73%
12 | CCOC(=O)c1ccc(NP(C)(=O)Oc2cc(C)cc(C)c2)cc1 (centres undefined) | inactive: -0.0284%
13 | CCN(CC)CCCOC(=O)C(O)(c1ccccc1)c1ccccc1 | inactive: 3.66%
14 | COc1ccc(OP(C)(=O)Nc2cccc(F)c2)cc1 (centres undefined) | inactive: -4.26%
15 | COc1ccccc1OP(C)(=O)Nc1cc(Cl)ccc1C (centres undefined) | inactive: 5.99%
16 | Cc1cc(C)cc(OP(C)(N)=O)c1 (centres undefined) | inactive: 1.11%
17 | CCOC(=O)c1ccc(NP(C)(=O)Oc2ccccc2)cc1 (centres undefined) | inactive: 4.98%
18 | Cc1ccc(NP(C)(=O)Oc2ccccc2)c(C)c1 (centres undefined) | inactive: 3.68%
19 | COc1ccccc1OP(C)(=O)Nc1ccc(C)cc1 (centres undefined) | inactive: -5.24%
20 | Cc1cccc(C)c1OP(C)(N)=O (centres undefined) | inactive: 2.51%
21 | O=[N+]([O-])c1ccc2c(c1)C=Nc1ccccc1O2 | inactive: -11.2%
22 | COc1ccccc1OP(C)(=O)Nc1ccccc1 (centres undefined) | inactive: -8.39%

Row | SMILES | activity change, negative = inhibition
23 | CP(=O)(Nc1ccccc1Br)Oc1ccccc1 (centres undefined) | inactive: -0.804%
24 | CP(=S)(Nn1cnnc1)Oc1ccccc1 (centres undefined) | inactive: -11.6%
25 | CP(=O)(Nc1ccccn1)Oc1ccc(Cl)cc1 (centres undefined) | inactive: -2.47%
26 | CCOP(C)(=S)SCC(=O)NC(C)C(=O)O (centres undefined) | inactive: 0.0342%
27 | CCOC(=O)c1ccc(NP(C)(=O)Oc2ccc(OC)cc2)cc1 (centres undefined) | inactive: -3.12%
28 | Cc1cc(C)cc(OP(C)(=O)Nc2ccc(SC(F)(F)F)cc2)c1 (centres undefined) | inactive: 3.96%
29 | CP(=O)(NC(=O)Nc1ccccc1)Oc1ccccc1 (centres undefined) | inactive: 6.59%
30 | CP(=O)(Oc1ccccc1)OC(c1ccccc1)C(F)(F)F (centres undefined) | inactive: -4.24%
31 | CN(C)C(=O)c1c([N+](=O)[O-])cc([N+](=O)[O-])cc1[N+](=O)[O-] | inactive: 1.49%
32 | CP(=O)(Nc1ccc(Cl)cc1)Oc1ccc(F)cc1 (centres undefined) | inactive: 9.27%
33 | CC(C)(C)c1ccc(OP(C)(=O)O)cc1 | inactive: 4.32%
34 | COc1ccccc1OP(C)(=O)Nc1ccccc1Br (centres undefined) | inactive: -4.47%
35 | CCc1ccc(OP(C)(=O)Nc2cccnc2)cc1 (centres undefined) | inactive: 6.5%
36 | CP(=O)(Oc1ccccc1)N1CCOC1=O (centres undefined) | inactive: -5.68%
37 | COc1ccccc1OP(C)(=O)Nc1c(C)n(C)n(-c2ccccc2)c1=O (centres undefined) | inactive: 2.19%
38 | COc1ccc(OP(C)(=O)Nc2ccc(Br)cc2)cc1 (centres undefined) | inactive: 7.43%
39 | CCN(CC)CC(O)COC(=O)C(O)(c1ccccc1)C1CCCCC1 (centres undefined) | inactive: 6.4%
40 | CP(=O)(OC12CC3CC(CC(C3)C1)C2)OC12CC3CC(CC(C3)C1)C2 | inactive: -9.73%
41 | CCOC(=O)c1ccc(NP(C)(=O)Oc2ccc(Cl)cc2)cc1 (centres undefined) | inactive: -7.94%
42 | CP(=O)(OCCOc1ccccc1)OCCOc1ccccc1 | inactive: 3.38%
43 | CP(=O)(Nc1ccc(Cl)cc1Cl)Oc1ccccc1 (centres undefined) | inactive: -2.71%
44 | Cc1nc2ccc3ccccc3c2o1.O=[N+]([O-])c1cc([N+](=O)[O-])c(O)c([N+](=O)[O-])c1 | inactive: -6.44%

Row | SMILES | activity change, negative = inhibition
45 | COc1ccc(OP(C)(=O)Nc2ccccc2Br)cc1 (centres undefined) | inactive: -8.98%
46 | COc1ccccc1OP(C)(=O)Nc1ccc(C)c(C)c1 (centres undefined) | inactive: -1.29%
47 | Cc1cc(C)cc(OP(C)(=O)Nc2cccc(C(F)(F)F)c2)c1 (centres undefined) | inactive: 7.21%
48 | CCc1ccc(OP(C)(=O)O)cc1 | inactive: 4.6%
49 | COc1ccccc1OP(C)(=O)Nc1ccc(C)cc1C (centres undefined) | inactive: -3.57%
50 | CP(=O)(Nc1ccccn1)Oc1ccccc1 (centres undefined) | inactive: 1.04%
51 | O=[N+]([O-])c1cc([N+](=O)[O-])c(Nc2ccccn2)c([N+](=O)[O-])c1 | inactive: 5.71%
52 | CN(C)CCOC(=O)C(O)(c1ccccc1)C1CCCC1 (centres undefined) | inactive: 2.05%
53 | COc1ccc(OP(C)(=O)Nc2ccccn2)cc1 (centres undefined) | inactive: -6.29%
54 | CP(=O)(Nc1ccccc1F)Oc1ccccc1 (centres undefined) | inactive: -0.0979%
55 | CP(=O)(Nc1ccccc1)Oc1ccc(F)cc1 (centres undefined) | inactive: -16.5%
56 | CCN(CC)CCCOC(=O)C(O)(c1ccccc1)C1CCCCC1 (centres undefined) | inactive: -1.59%
57 | COc1ccc(OP(C)(=O)Nc2ccc(SC(F)(F)F)cc2)cc1 (centres undefined) | inactive: -12%
58 | CCOC(=O)c1ccc(NP(C)(=O)Oc2ccc(F)cc2)cc1 (centres undefined) | inactive: -5.8%
59 | COc1ccc(NP(C)(=O)Oc2ccccc2OC)cc1 (centres undefined) | inactive: -1.05%
60 | CN(C)CCOC(=O)C(O)(c1ccccc1)C1CCCCC1 (centres undefined) | inactive: -5.91%
61 | COc1ccc(OP(C)(=O)Nc2cccc(Br)c2)cc1 (centres undefined) | inactive: 1.17%
62 | Cc1ccccc1NP(C)(=O)Nc1ccccc1C | inactive: 5.48%
63 | CP(=O)(Nc1ccc2c(c1)OCCO2)Oc1ccccc1 (centres undefined) | inactive: 0.241%
64 | CCOP(C)(=S)SCC(=O)NC(C)(CC)C(=O)O (centres undefined) | inactive: 3.65%
